Source: patent US7960404B2, “Spirocyclic cyclohexane compounds” (dated 2011)
Like-named read-outs stand apart in the source and are kept apart here.

Sequences of proteins named here, by UniProt entry; tags and fusion partners are left off.
UniProt P41146, whole entry: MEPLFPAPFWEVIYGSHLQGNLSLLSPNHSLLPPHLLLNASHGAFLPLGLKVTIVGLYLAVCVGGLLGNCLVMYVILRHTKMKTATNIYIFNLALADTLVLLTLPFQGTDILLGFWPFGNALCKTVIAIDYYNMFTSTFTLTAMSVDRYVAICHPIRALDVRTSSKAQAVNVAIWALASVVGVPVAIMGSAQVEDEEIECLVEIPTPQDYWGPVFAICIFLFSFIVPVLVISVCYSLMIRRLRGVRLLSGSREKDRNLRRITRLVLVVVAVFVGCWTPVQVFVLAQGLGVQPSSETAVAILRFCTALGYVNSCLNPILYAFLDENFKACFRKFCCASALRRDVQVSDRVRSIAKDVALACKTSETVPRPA
UniProt P35372, whole entry: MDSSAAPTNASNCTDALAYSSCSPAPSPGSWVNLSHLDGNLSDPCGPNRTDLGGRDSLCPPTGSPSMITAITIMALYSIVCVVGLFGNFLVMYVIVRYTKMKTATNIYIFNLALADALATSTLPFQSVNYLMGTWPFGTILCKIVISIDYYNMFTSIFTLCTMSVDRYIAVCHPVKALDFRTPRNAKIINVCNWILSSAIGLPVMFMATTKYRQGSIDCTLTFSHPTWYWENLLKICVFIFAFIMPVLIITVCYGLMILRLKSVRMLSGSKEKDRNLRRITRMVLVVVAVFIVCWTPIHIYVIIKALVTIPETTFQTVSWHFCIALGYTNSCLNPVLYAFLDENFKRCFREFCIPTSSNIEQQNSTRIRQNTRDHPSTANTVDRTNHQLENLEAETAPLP

Experiments:
ORL1 receptor = ORL1 receptor (Homo sapiens, UniProt P41146); test: ORL1 receptor binding assay with 3H-nociceptin/orphanin FQ (SPA)
human μ-opiate receptor = human μ-opiate receptor (Homo sapiens, UniProt P35372); test: μ-opiate receptor binding assay with [3H] naloxone (SPA)
[1] = 1 μM, series R3=phenyl, R8=F, X=O

Question: Which results are given for `CNC1(c2ccccc2)CCC2(CC1)OCCc1c2[nH]c2ccc(F)cc12` (centres unmarked)?
Answer: % inhibition (ORL1) [1 μM] (ORL1 receptor; [1]): 91%; Ki (ORL1 receptor; read-out: Ki (ORL1) mean, series R3=phenyl, R8=F, X=O): 11.2 nM; % inhibition (μ) [1 μM] (human μ-opiate receptor; [1]): 100%; Ki (human μ-opiate receptor; read-out: Ki (μ) mean, series R3=phenyl, R8=F, X=O): 0.8 nM

Question: How did the Ki (ORL1 receptor; read-out: Ki (ORL1)) turn out when `Fc1cccc(C2(N3CCC3)CCC3(CC2)NCCc2c3[nH]c3ccccc23)c1` (single isomer, unassigned) was run?
Answer: The Ki was 0.8 nM.

Question: What about the Ki (human μ-opiate receptor; read-out: Ki (μ)) of the same compound?
Answer: The Ki was 0.9 nM.

Question: Which results are given for `CCCCC1(N(C)C)CCC2(CC1)OCCc1c2[nH]c2ccc(F)cc12` (centres unmarked)?
Answer: Ki (ORL1 receptor; read-out: Ki (ORL1) mean, series R3=n-butyl, R8=F, X=O): 1.6 nM; Ki (human μ-opiate receptor; read-out: Ki (μ) mean, series R3=n-butyl, R8=F, X=O): 0.9 nM
